ChEMBL document CHEMBL1130261, “Identification of novel farnesyl protein transferase inhibitors using three-dimensional database searching methods” (J Med Chem, 1997)

By UniProt entry, the sequences of proteins in these tests, tags left out.
UniProt P53609, whole entry, looked up: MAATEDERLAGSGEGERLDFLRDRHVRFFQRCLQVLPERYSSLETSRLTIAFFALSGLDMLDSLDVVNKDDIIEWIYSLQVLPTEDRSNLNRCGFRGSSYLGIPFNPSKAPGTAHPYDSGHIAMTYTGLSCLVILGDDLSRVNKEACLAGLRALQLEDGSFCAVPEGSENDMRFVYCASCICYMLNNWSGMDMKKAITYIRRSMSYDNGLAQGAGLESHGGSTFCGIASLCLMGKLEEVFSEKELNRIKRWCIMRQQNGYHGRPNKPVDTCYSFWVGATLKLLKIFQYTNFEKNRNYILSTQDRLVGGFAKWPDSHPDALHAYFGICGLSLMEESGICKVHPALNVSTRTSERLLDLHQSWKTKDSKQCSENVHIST

Key:
Format in all cases: protein-complex assay
[1] = target: T1, Protein farnesyltransferase (Homo sapiens, UniProt P49354+P49356); experiment: Inhibition of Farnesyltransferase (FPT) in FPT Ras/TCA assay
Summary of the method: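 Secondary FPT assay measuring transfer of [³H]farnesyl from [³H]farnesyl pyrophosphate to His₆-H-Ras-CVLS. Labelled protein was collected by TCA precipitation. IC50 values were obtained from this Ras/TCA format.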

[2] = target: T1, Protein farnesyltransferase; experiment: Inhibitory activity against recombinant human farnesyltransferase
[3] = target: Protein farnesyl/geranylgeranyl transferase (Homo sapiens) (UniProt P49354+P49356+P53609); experiment: Selectivity was expressed as the ratio of the Geranylgeranyl transferase type I to FPT inhibitory activities (IC50)

Structure (SMILES)	IC50 [1]	IC50 [2]	Selectivity ratio [3]
CC(=O)N1CCN(c2nc(CO[C@@H]3c4cc(C(C)(C)C)ccc4S[C@@H]3Cn3ccnc3)ns2)CC1	5.3 µM	4800 nM	> 8
O=C(c1cc[n+]([O-])cc1)N1CCC(=C2c3ccc(Cl)cc3C(O)Cc3cccnc32)CC1 (stereo unspecified)	–	32700 nM	–
O=C(Cc1cccnc1)N1CCN(C2c3ccc(Cl)cc3CCc3cccnc32)CC1 (stereo unspecified)	–	1000 nM	–
O=C(Cc1ccccn1)N1CCN(C2c3ccc(Cl)cc3CCc3cccnc32)CC1 (stereo unspecified)	–	360 nM	–
